{
  "source": "patent US20110117106A1",
  "about": "“USES OF CALPAIN INHIBITORS TO INHIBIT INFLAMMATION” (priority 2008, published 2011)",
  "key": {"calpain": {"test_system": "calpain", "experiment": "Calpain assay with cell permeable fluorogenic calpain substrate (Boc-LM-CMAC)", "type": "cell-based, human", "conditions": "1HAEo- cells and SAEC stimulated with heat killed PAO1 or P3C", "procedure": "Confluent monolayers of 1HAEo-cells or SAECs were loaded with 20 μM t-BOC-L-leucine-L-methionine amide (Boc-LM-CMAC), a calpain specific membrane permeable fluorogenic substrate. Cells were stimulated with heat killed PAO1 (10^7 CFU) or P3C (15 μg/ml) and fluorescence was quantified at ex 360 nm and em 465 nm with a Spectrafluor Plus fluorimeter (Tecan)."}, "[1]": {"test_system": "E-cadherin cleavage by calpain (100 kDa E-cadherin cleavage product)", "experiment": "E-cadherin cleavage: immunoblot in 1HAEo- cells", "type": "cell-based, human", "conditions": "cells stimulated with heat-killed PAO1 or P3C, 4 hr", "procedure": "1HAEo-cells or SAECs were grown to confluence on 10 cm plates, stimulated with heat killed PAO1 (10^7 CFU) or P3C (15 μg/ml), and whole cell lysates made using 60 mM n-octyl-β-D-glucopyranoside (OGP) in TBS (0.1 M Tris-HCl and 0.15 M NaCl, pH 7.8) containing Complete Mini protease inhibitor tablets (Roche), 1 mM sodium orthovanadate and 100 mM sodium fluoride. Monoclonal anti-E-cadherin (BD Pharmingen), polyclonal anti-pan calpain (Santa Cruz Biotechnologies) or monoclonal anti-occludin (Invitrogen/Zymed) antibodies were used for immunoprecipitations followed by the addition of Protein G Agarose beads (Invitrogen) (Chun and Prince, 2006). Immunodetection was performed using monoclonal anti-E-cadherin, polyclonal anti-occludin, anti-pan calpain, anti-calpain 1 and anti-calpain 2 antibodies (Santa Cruz Biotechnology)."}},
  "data": [
    {"smiles": "CCCC[C@@H](C=O)NC(=O)[C@H](CC(C)C)NC(=O)OCc1ccccc1", "note": "[calpeptin, Z-Leu-Nle-CHO]", "values": [
      {"measurement": "Calpain activity (accumulation of fluorogenic calpain substrate) in presence of inhibitor", "setting": "calpain", "result": "inhibited"},
      {"measurement": "Generation of 100 kDa E-cadherin cleavage product in presence of inhibitor", "setting": "[1]", "result": "substantially decreased"}
    ]}
  ]
}
